Assay [1] relates to T-24. Description: Induction of apoptosis in human T-24 cells assessed as necrotic cells at 3 uM incubated for 8 hrs by annexin V-FITC and PI staining based flow cytometry analysis (reference value: 0.84 %). Format: functional. (Flow cytometry measures light scatter and fluorescence of single cells or particles in a stream.)
The test system of assay [2] is T-24. Description: Induction of apoptosis in human T-24 cells assessed as early apoptotic cells at 3 uM in presence of zVAD incubated for 8 hrs by annexin V-FITC and PI staining based flow cytometry analysis (reference value: 3.37 %). The class given is functional.

As to `Nc1ccn([C@@H]2O[C@H](CO)[C@@H](O)C2(F)F)c(=O)n1` [GEMCITABINE], the Activity was 5.36% in the assay on T-24 [1] and 4.18% with T-24 [2].
